We go through 56 molecules from PubChem BioAssay AID2805 (Sanford-Burnham Center for Chemical Genomics, 2010).

The list shows a part of the results, in another mix than the full data. Some salts or complexes appear as unconnected parts, following the source record. The source made the active and inactive calls.

The subject of this assay is intestinal alkaline phosphatase [Mus musculus]. The experiment in a line: activators of mouse IAP, primary screen, biochemical, luminescence, uHTS (AID 2805). The conditions noted are these: muIAP, CDP-Star luminescence, 30 min; at 10 µM; hits give high values; 1 = vehicle-only enzyme signal, 0 = enzyme-free wells. Summed up:
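Assay system: mouse IAP enzyme; reagent: chemiluminescent substrate CDP-Star; dosing: test compounds delivered from DMSO solution; schedule: 30 min at room temperature; measured by: luminescence from enzymatic CDP-Star hydrolysis; controls: DMSO-only wells and no-enzyme negative control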
Consider `CCOC(=O)c1ccc(NP(C)(=O)Oc2ccccc2)cc1` (stereo unspecified), for which the activation factor is inactive: 0.971.

Consider `Cc1ccc(NP(C)(=O)Oc2ccccc2)c(C)c1` (stereo unspecified), for which the activation factor was inactive: 1.04.

Turning to `COc1ccccc1OP(C)(=O)Nc1ccc(C)cc1` (stereo unspecified), the activation factor was inactive: 0.946.

Consider `COc1ccc(OP(C)(=O)Nc2cccc(F)c2)cc1` (stereo unspecified), for which the activation factor was inactive: 0.965.

Regarding `COc1ccccc1OP(C)(=O)Nc1cc(Cl)ccc1C` (stereo unspecified), the activation factor is inactive: 0.913.

`Cc1cc(C)cc(OP(C)(N)=O)c1` (stereo unspecified): the activation factor is inactive: 1.14.

With `O=[N+]([O-])c1cc([N+](=O)[O-])c(Nc2cccnc2)c([N+](=O)[O-])c1`, the activation factor is inactive: 0.68.

Turning to `Cc1cccc(C)c1OP(C)(N)=O` (stereo unspecified), the activation factor was inactive: 0.969.

On to `CC(C)(C)c1ccc(OP(C)(=O)Nc2ccc(SC(F)(F)F)cc2)cc1` (stereo unspecified), for which the activation factor is inactive: 1.05.

As for `CCN(CC)CCCOC(=O)C(O)(c1ccccc1)c1ccccc1`, the activation factor is inactive: 0.96.

In the case of `CCOP(C)(=S)SCC(=O)NC(C)C(=O)O` (stereo unspecified), the activation factor is inactive: 0.974.

As for `O=[N+]([O-])c1cc([N+](=O)[O-])c(O)c([N+](=O)[O-])c1.c1ccc(Oc2ccncc2)cc1`, the activation factor was inactive: 1.15.

Consider `CCOC(=O)c1ccc(NP(C)(=O)Oc2ccc(OC)cc2)cc1` (stereo unspecified), for which the activation factor is inactive: 0.947.

Regarding `CP(=O)(Nc1ccccn1)Oc1ccc(Cl)cc1` (stereo unspecified), the activation factor is inactive: 1.02.

In the case of `CP(=O)(Oc1ccccc1)OC(c1ccccc1)C(F)(F)F` (stereo unspecified), the activation factor was inactive: 0.94.

Take `CP(=O)(Nc1ccc(SC(F)(F)F)cc1)Oc1ccc(Cl)cc1` (stereo unspecified): the activation factor is inactive: 0.992.

`Cc1cccc(C)c1OP(C)(=O)Nc1ccc(SC(F)(F)F)cc1` (stereo unspecified): the activation factor is inactive: 1.16.

In the case of `Cc1cc(C)cc(OP(C)(=O)Nc2ccc(SC(F)(F)F)cc2)c1` (stereo unspecified), the activation factor is inactive: 0.955.

With `CP(=O)(NC(=O)Nc1ccccc1)Oc1ccccc1` (stereo unspecified), the activation factor is inactive: 1.08.

For the molecule `CCc1ccc(OP(C)(=O)N2CCN(c3ccc([N+](=O)[O-])cc3)CC2)cc1` (stereo unspecified), the activation factor was inactive: 0.954.

Turning to `CP(=S)(Nn1cnnc1)Oc1ccccc1` (stereo unspecified), the activation factor is inactive: 1.05.

Regarding `COc1ccccc1OP(C)(=O)Nc1ccccc1` (stereo unspecified), the activation factor was inactive: 1.11.

For the molecule `CP(=O)(Nc1ccccc1Br)Oc1ccccc1` (stereo unspecified), the activation factor was inactive: 1.02.

`CN1CCCCC1COC(=O)C1(O)c2ccccc2CCc2ccccc21` (stereo unspecified): the activation factor was inactive: 1.03.

As for `COc1ccccc1OP(C)(=O)Nc1c(C)cccc1C` (stereo unspecified), the activation factor was inactive: 0.962.

Consider `CCCOc1ccc(NP(C)(=O)Oc2ccc(Cl)cc2)cc1` (stereo unspecified), for which the activation factor was inactive: 1.03.

Take `CP(=O)(Nc1ccc(SC(F)(F)F)cc1)Oc1ccccc1` (stereo unspecified): the activation factor was inactive: 1.03.

With `CCOC(=O)C(CC)C1=NC(C)(C)Cc2ccccc21.O=[N+]([O-])c1cc([N+](=O)[O-])c(O)c([N+](=O)[O-])c1` (stereo unspecified), the activation factor was inactive: 0.949.

Turning to `CC1=C2N=C(C=C3N=C(C(C)=C4[N-][C@@](C)([C@@H]5N=C1[C@](C)(CCC(=O)NC[C@@H](C)OP(=O)([O-])O[C@H]1[C@@H](O)[C@@H](n6cnc7cc(C)c(C)cc76)O[C@@H]1CO)[C@H]5CC(N)=O)[C@@](C)(CC(N)=O)[C@@H]4CCC(N)=O)[C@@](C)(CC(N)=O)[C@@H]3CCC(N)=O)C(C)(C)[C@@H]2CCC(N)=O.[C-]#N.[Co+3]`, the activation factor is inactive: 0.819.

With `O=[N+]([O-])c1cc([N+](=O)[O-])c(Nc2nnnn2CCO)c([N+](=O)[O-])c1`, the activation factor is inactive: 0.814.

In the case of `O=[N+]([O-])c1cc([N+](=O)[O-])c(-c2cnn(-c3ccccc3)c2)c([N+](=O)[O-])c1`, the activation factor was inactive: 0.98.

Consider `Cc1nc2ccc3ccccc3c2s1.O=[N+]([O-])c1cc([N+](=O)[O-])c(O)c([N+](=O)[O-])c1`, for which the activation factor is inactive: 1.09.

With `O=[N+]([O-])c1cc([N+](=O)[O-])c(-n2nnc3ccccc32)c([N+](=O)[O-])c1`, the activation factor is inactive: 1.01.

Regarding `Cc1cc(C)cc(OP(C)(=O)Nc2ccccn2)c1` (stereo unspecified), the activation factor was inactive: 0.913.

As for `CP(=O)(Nc1cccc(Br)c1)Oc1ccccc1` (stereo unspecified), the activation factor is inactive: 1.2.

As for `Cc1ccc(C)c(NP(C)(=O)Oc2ccccc2)c1` (stereo unspecified), the activation factor was inactive: 0.965.

For `COc1ccccc1OP(C)(=O)Nc1cccc(Br)c1` (stereo unspecified), the activation factor is inactive: 0.952.

As for `Cc1cc(C)cc(OP(C)(=O)Nc2ccc(C)cc2C)c1` (stereo unspecified), the activation factor is inactive: 1.07.

Regarding `CCOC(=O)c1ccc(NP(C)(=O)Oc2cc(C)cc(C)c2)cc1` (stereo unspecified), the activation factor is inactive: 0.815.

On to `CC1=NCCc2c1[nH]c1ccccc21.O=[N+]([O-])c1cc([N+](=O)[O-])c(O)c([N+](=O)[O-])c1`, for which the activation factor was inactive: 0.851.

In the case of `O=C(O)c1cccc(Nc2c([N+](=O)[O-])cc([N+](=O)[O-])cc2[N+](=O)[O-])c1`, the activation factor is inactive: 0.989.

As to `CCN(CC)CCCOC(=O)C(O)(c1ccccc1)C1CCCCC1` (stereo unspecified), the activation factor was inactive: 0.955.

`O=[N+]([O-])c1cc([N+](=O)[O-])c(OC2CCCCC2O)c([N+](=O)[O-])c1` (stereo unspecified): the activation factor is inactive: 0.955.

As for `CCCCCOc1ccc(NP(C)(=O)Oc2ccc(Cl)cc2Cl)cc1` (stereo unspecified), the activation factor was inactive: 0.961.

`CP(=O)(Nc1ccccc1)Oc1ccc(F)cc1` (stereo unspecified): the activation factor was inactive: 0.965.

Turning to `COc1ccc(OP(C)(=O)Nc2ccc(SC(F)(F)F)cc2)cc1` (stereo unspecified), the activation factor is inactive: 0.937.

`CCOC(=O)c1ccc(NP(C)(=O)Oc2ccc(F)cc2)cc1` (stereo unspecified): the activation factor is inactive: 0.971.

As to `O=C(OCCN1CCN(CCOCc2ccccc2)CC1)C(O)(c1ccccc1)c1ccccc1`, the activation factor is inactive: 0.922.

Turning to `O=C(OC1CN2CCC1CC2)c1ccc([N+](=O)[O-])cc1` (stereo unspecified), the activation factor was inactive: 1.11.

Take `COc1ccc2c(c1O)-c1c(O)c(OC)cc3c1[C@H](C2)[N+](C)(C)CC3.O=[N+]([O-])c1cc([N+](=O)[O-])c([O-])c([N+](=O)[O-])c1[O-]`: the activation factor is inactive: 0.935.

On to `CC(C)c1ccc(OP(C)(=O)Nc2ccc(SC(F)(F)F)cc2)cc1` (stereo unspecified), for which the activation factor was inactive: 1.06.

As for `CP(=O)(Nc1ccccc1F)Oc1ccccc1` (stereo unspecified), the activation factor was inactive: 1.04.

On to `CP(=O)(Nc1ccc2c(c1)OCCO2)Oc1ccccc1` (stereo unspecified), for which the activation factor is inactive: 0.958.

For `Cc1ccccc1NP(C)(=O)Nc1ccccc1C`, the activation factor was inactive: 1.

Regarding `CP(=O)(Nc1ccc(SC(F)(F)F)cc1)Oc1ccc(F)cc1` (stereo unspecified), the activation factor is inactive: 0.85.

For the molecule `CCOP(C)(=S)SCC(=O)NC(C)(CC)C(=O)O` (stereo unspecified), the activation factor is inactive: 0.972.
